Test results: patent US7019019B2, “Matriptase inhibitors and methods of use” (Dendreon Corporation, priority 2002, dated 2006)

Protein sequences, listed by entry. Tags and fused reporters are not part of them. Residues count along the entry.
UniProt P00747, 581-810 limits assumed: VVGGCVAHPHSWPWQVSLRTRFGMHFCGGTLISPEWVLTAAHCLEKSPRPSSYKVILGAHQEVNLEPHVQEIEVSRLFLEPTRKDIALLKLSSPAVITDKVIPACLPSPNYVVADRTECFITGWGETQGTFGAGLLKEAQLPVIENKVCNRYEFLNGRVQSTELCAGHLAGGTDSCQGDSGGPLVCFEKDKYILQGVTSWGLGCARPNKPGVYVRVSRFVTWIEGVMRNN
UniProt P00747, 97-580 partner limits assumed: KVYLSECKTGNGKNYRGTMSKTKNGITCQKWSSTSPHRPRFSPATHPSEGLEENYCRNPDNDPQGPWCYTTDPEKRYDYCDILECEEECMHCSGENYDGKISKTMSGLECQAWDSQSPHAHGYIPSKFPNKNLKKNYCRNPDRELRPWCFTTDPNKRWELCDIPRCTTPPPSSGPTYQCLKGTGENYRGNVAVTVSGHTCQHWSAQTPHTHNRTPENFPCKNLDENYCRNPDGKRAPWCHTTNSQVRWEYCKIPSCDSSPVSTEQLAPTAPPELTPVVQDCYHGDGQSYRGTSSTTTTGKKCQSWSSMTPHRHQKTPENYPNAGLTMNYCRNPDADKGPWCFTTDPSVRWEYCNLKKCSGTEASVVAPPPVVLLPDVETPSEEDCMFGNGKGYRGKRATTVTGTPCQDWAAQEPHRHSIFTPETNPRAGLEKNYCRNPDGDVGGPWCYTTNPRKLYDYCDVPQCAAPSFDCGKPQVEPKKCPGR
UniProt Q9Y5Y6, whole entry C731S: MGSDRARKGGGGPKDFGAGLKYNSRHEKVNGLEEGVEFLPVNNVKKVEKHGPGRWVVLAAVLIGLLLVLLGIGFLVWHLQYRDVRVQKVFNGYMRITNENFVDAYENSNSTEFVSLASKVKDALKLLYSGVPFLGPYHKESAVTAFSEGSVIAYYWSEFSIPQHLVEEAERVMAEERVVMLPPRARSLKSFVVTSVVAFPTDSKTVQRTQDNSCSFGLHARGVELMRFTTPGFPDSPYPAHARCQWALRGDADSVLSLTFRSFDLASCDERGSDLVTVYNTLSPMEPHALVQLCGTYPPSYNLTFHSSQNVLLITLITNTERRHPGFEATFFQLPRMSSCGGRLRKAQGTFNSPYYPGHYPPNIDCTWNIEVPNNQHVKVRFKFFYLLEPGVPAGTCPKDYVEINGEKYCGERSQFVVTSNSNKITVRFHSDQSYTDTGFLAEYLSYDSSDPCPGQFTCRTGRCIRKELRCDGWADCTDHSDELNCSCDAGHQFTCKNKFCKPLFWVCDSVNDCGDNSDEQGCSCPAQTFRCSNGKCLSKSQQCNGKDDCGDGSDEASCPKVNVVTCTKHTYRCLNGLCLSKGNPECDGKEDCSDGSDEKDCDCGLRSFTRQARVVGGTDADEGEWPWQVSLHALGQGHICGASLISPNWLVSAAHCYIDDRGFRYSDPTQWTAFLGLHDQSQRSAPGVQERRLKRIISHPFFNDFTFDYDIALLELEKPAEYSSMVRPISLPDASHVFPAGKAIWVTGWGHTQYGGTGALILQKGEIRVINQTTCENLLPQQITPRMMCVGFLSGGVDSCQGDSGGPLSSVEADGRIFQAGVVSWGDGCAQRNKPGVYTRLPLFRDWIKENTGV
UniProt Q9UL52, 192-423 limits assumed: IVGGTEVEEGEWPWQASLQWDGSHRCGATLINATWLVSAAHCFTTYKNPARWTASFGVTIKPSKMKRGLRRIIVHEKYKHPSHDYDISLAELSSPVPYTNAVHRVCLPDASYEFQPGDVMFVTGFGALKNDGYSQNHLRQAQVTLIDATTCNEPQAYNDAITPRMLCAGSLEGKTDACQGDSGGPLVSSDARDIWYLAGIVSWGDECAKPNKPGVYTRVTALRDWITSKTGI
UniProt Q9BYE2, 326-586 limits assumed: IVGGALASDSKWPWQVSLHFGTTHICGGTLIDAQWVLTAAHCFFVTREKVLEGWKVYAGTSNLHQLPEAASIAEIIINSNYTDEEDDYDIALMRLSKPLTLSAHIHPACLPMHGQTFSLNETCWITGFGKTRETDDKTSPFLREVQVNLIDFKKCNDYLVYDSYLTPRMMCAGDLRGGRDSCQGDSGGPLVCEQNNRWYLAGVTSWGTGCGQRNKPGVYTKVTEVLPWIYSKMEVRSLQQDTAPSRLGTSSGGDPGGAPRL
UniProt P00742, 235-488 limits assumed: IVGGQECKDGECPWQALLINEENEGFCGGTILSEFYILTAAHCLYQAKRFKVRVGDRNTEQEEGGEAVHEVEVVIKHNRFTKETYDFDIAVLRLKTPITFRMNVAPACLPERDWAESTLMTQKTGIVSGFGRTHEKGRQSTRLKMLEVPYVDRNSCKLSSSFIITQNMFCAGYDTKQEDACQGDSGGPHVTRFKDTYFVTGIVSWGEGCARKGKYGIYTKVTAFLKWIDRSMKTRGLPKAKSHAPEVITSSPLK
UniProt P00742, 41-179 partner limits assumed: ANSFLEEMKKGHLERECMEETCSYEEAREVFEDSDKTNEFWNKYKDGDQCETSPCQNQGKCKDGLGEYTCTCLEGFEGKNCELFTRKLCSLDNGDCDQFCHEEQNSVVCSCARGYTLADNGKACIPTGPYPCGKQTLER

Assays:
plasmin = plasmin (Homo sapiens, UniProt P00747); assay: Plasmin chromogenic assay (S-2366); settings: read-out: Ki Plasmin
Description: (§1) The ability of compounds to act as a selective inhibitor of matriptase activity was assessed by determining the concentration of test-compound which inhibited the activity of matriptase by 50%, (IC50) as described in Example A, and comparing IC50 value for matriptase to that determined for all or some of the following serine proteases: thrombin, recombinant tissue plasminogen activator (rt-PA), plasmin, activated protein C, chymotrypsin, factor Xa and trypsin.
(§2) The buffer used for all assays was HBSA (10 mM HEPES, pH 7.5, 150 mM sodium chloride, 0.1% bovine serum albumin).
(§3) The assay for IC50 determinations was conducted by combining in appropriate wells of a Corning microtiter plate, 50 microliters of HBSA, 50 microliters of the test compound at a specified concentration (covering a broad concentration range) diluted in HBSA (or HBSA alone for V0 (uninhibited velocity) measurement), and 50 microliters of the enzyme diluted in HBSA. […] The initial velocity of chromogenic substrate hydrolysis was measured by the change in absorbance at 405 nm using a Thermo Max® Kinetic Microplate Reader over a 5 minute period in which less than 5% of the added substrate was utilized. […]
Plasmin catalytic activity was determined using the chromogenic substrate, S-2366 [L-pyroglutamyl-L-prolyl-L-arginine-p-nitroaniline hydrochloride], which was obtained from DiaPharma group. […]

Matriptase = Matriptase (Homo sapiens, UniProt Q9Y5Y6); assay: Amidolytic assay for inhibition of serine protease activity of matriptase or MTSP1; settings: read-out: Ki Matriptase
[1] = target: (Homo sapiens, UniProt Q9UL52); assay: In vitro enzyme assay for specificity: Endothelin 1; type: biochemical; settings: read-out: Ki Endothelin 1
[2] = target: (Homo sapiens, UniProt Q9BYE2); assay: In vitro enzyme assay for specificity: Endothelin 2; type: biochemical; settings: read-out: Ki Endothelin 2
Factor Xa = Factor Xa (Homo sapiens, UniProt P00742); assay: Factor Xa chromogenic assay (S-2765); settings: read-out: Ki FXa
Description: as §1, §2, §3
Factor Xa catalytic activity was determined using the chromogenic substrate S-2765 (N-benzyloxycarbonyl-D-arginine-L-glycine-L-arginine-p-nitro aniline), obtained from DiaPharma Group (Franklin, Ohio). […]

α-thrombin = α-thrombin (Homo sapiens, UniProt P00734); assay: Thrombin (fIIa) chromogenic assay (Pefachrome t-PA); settings: read-out: Ki Thrombin
Description: as §1, §2, §3
Enzyme activity was determined using the chromogenic substrate, Pefachrome t-PA (CH3SO2-D-hexahydrotyrosine-glycyl-L-Arginine-p-nitroaniline, obtained from Pentapharm Ltd.). […]

For `N=C(N)c1cccc(CC(N)(C=CC(=O)O)C(=O)NCC(=O)NCc2ccc(C(=N)N)s2)c1` (stereo not drawn), the Ki (plasmin) was 0.5 to 2.5 µM, the Ki (Matriptase) was 0.1 to 0.25 µM and the Ki [1] was over 2.5 µM. The Ki [2] was over 2.5 µM, the Ki (Factor Xa) was 0.5 to 2.5 µM and the Ki (α-thrombin) was 0.5 to 2.5 µM.
